Source: patent US10945951B2, “Apparatus for compound dispersion” (Biogen MA Inc., priority 2014, dated 2021)

Experiments:
[1] = in vivo
[2] = 20 μl bolus, intrathecal
Experimental: The same amount of each probe was used in each injected bolus. However, the total bolus volumes for the separate injections were 20 μl and 30 μl followed by a 40 μl saline flush. The boluses were injected intrathecally into rodents and the concentration of the two probes was monitored at the lumbar, thoracic, and cervical regions.

Q: For “[^99mTc]DTPA-mannosyl-dextran [Lymphoseek]”, which “migration to lymph nodes” value [1] is on record?
A: migrated into the head and neck lymph nodes

Q: For ^111In-DTPA, which “concentration change over time in the lumbar region” value [2] is on record?
A: larger concentration decrease over time

Q: What about the “concentration in the lumbar region at injection” value [2] of the same substance?
A: initially high concentration

Q: What about the “concentration over time in the thoracic and cervical regions” value [2] of the same substance?
A: increases over time
